Earlier results as cited in publication PMC12298822, “Development and Validation of a Highly Sensitive LC–MS/MS Method for the Precise Quantification of Sitagliptin in Human Plasma and Its Application to Pharmacokinetic Study” (Molecules, 2025).

Tested on: DPP-4
Parameters: method as in PMID 37287751
Settings: cited from earlier work

N[C@@H](CC(=O)N1CCn2c(nnc2C(F)(F)F)C1)Cc1cc(F)c(F)cc1F [Sitagliptin, 7-[(3R)-3-amino-1-oxo-4-(2,4,5-trifluorophenyl)butyl]-5,6,7,8-tetrahydro-3-(trifluoromethyl)]
preference for DPP-4 over DPP-8 and DPP-9: high preference
